The values below come from publication PMC2770177.

For this experiment, the target named is F-actin (rat hindleg muscle) (rat) (UniProt P68136). The experiment in a line: co-sedimentation.

Consider “natively phosphorylated α-tropomyosin (rat skeletal muscle) (from UniProt P04692 1-284) (natural protein)”, for which the Km for Tm binding to actin was determined as 0.951 µM.

On to “dephosphorylated α-tropomyosin (rat skeletal muscle) (from UniProt P04692 1-284) (natural protein)”, for which the Km for Tm binding to actin stood at 0.927 µM and the stoichiometry N (Tm/actin (mol/mol)) was 0.15.
